Experimental findings from publication PMC5417014 (Chemical Science, 2017) are described below.

Sequences of proteins named here, by UniProt entry; tags and fusion partners are left off. Residues count along the entry.
UniProt Q06187, 2-659: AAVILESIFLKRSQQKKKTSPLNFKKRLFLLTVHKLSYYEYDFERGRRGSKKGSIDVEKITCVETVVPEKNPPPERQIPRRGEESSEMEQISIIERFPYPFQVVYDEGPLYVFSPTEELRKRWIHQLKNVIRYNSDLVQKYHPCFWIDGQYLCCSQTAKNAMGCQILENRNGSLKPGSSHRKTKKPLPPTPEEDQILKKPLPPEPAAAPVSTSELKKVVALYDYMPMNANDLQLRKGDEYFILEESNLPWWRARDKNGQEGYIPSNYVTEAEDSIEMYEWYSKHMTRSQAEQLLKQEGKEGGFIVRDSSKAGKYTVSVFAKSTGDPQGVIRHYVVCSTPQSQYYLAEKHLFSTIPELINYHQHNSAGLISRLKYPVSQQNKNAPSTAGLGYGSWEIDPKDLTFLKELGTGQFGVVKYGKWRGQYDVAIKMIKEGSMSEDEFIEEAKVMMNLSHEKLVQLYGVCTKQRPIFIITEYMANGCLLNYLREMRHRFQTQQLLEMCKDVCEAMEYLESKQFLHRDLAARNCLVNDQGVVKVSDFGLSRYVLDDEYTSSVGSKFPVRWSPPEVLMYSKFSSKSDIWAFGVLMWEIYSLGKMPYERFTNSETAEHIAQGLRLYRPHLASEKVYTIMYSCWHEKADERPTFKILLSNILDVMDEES

pEC50: −log10 of the molar value.

The term pEC50 denotes the negative decadic logarithm of the EC50, by convention in mol/L.

The experiment has as its target Bruton's tyrosine kinase (Btk) (Homo sapiens, UniProt Q06187). The experiment is described as follows: target occupancy in Ramos cells, covalent fluorescent probe competition. It is filed as cell-based.

`C=CC(=O)Nc1cccc(Nc2nc(Nc3ccc(OCCOC)cc3)ncc2F)c1` [CC-292] gave a pEC50 of 7.65.
